The record followed here is PubChem BioAssay AID904 (National Center for Advancing Translational Sciences (NCATS), 2007).

This is a selection; strong and weak results do not stand in their true shares. Results filed as inconclusive are left out. Calls of active or inactive are those of the source. Calls follow the shape of the dose curve; as a rule, active = well fitted cell-killing curve with a large enough effect; inconclusive = small, poorly fitted or top-dose-only effect; inactive = no such curve, though single readings can be large or run the other way.

A short description of this assay: qHTS Screen for Compounds that Selectively Target Cancer Cells with p53 Mutations: Cytotoxicity of p53 Null Cells at the Nonpermissive Temperature.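 Also: 0% = DMSO only and -100% = full killing by 100 µM tamoxifen; nearly all actives have a fitted effect of over 50% in size.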 Particulars: H1299 p53-null (neo) cells, 39C, ATPlite viability, 24 h; at 46.1 µM (top of the series). An excerpt: NIH Chemical Genomics Center [NCGC] NIH Molecular Libraries Screening Centers Network [MLSCN] MLSCN Grant: 1 X01 MH079844-01 Assay Submitter (PI): Dr. SUN, YI, University of Michigan NCGC Assay Overview: Synthetic Lethal Screen for Compounds to Kill Cancer Cells with p53 Mutation. Tumor suppressor gene p53 serves as a major cellular barrier against tumorigenesis. […] The goal of this screening is to identify small molecule probes that selectively kill cancer cells with mutations in p53. This screening was carried out using two lines of H1299 lung cancer cells. The H1299-p53 A138V line express a temperature sensitive p53 mutant (p53ts) in which the mutant p53 protein (A138V) is in the mutant confirmation when grown at 39C (the nonpermissive temperature) and in the wild type conformation when grown at 32C (the permissive temperature). A H1299-neo line (p53 null) grown at both 39C and 32C were used as counter-screens to filter out false positive associated with temperature shifting. The small molecular compounds that selectively target mutant p53-containing cancer cells were selected as candidate probes for further study. A cytotoxicity assay based on the measurement of ATP contents in cells was used in this screen. Concentration-responses of all the compounds in the library collection were determined in qHTS using the cell lines and temperature conditions as above.
NCGC Assay Protocol Summary: Both the H1299-p53A138V and H1299-neo cell lines were provided by Dr.Yi Sun, a PI at the University Michigan. The cells were maintained and cultured at 37C. The resuspended frozen cells were used to plate the cells in the 1536-well assay plates at a density of 600 cells per well in 5 ul medium. The assay plates with the cells were incubated at 37C for 16 to 30 hours before the experiments. The library compounds in DMSO solution were added to the cells in assay plates and incubated 24 hours at 39C (for mutant p53 conformation) or 32C (for normal p53 conformation as control). An ATP_lite assay kit (PerkinElmer) was used to determine the cell viability. Tomaxifen (100uM) was used as the positive control for cell killing. Data were normalized to the controls for basal activity (DMSO only) and 100% killing (100uM tamoxifen). AC50 values were determined from concentration-response data modeled with the standard Hill equation. P53 assay protocol: 1. Reagent; 5 uL H1299-p53A138V or H1299-neo cell cells/well 2. Time; overnight; 37C incubation 3. Compounds; 23 nL; 5.9 nM to 46 uM 4. Controls; 23 nL; Tamoxifen 100 uM 5. Time; 24 hr; 39C incubation 6. Reagent; 3 uL; ATP_Lite reagent 7. Time; 20 min; Room Temperature 8. Detection; Luminescence; Viewlux plate reader Keywords: p53, synthetic lethal, cancer, cell viability, cytotoxicity, H1299 cell line, luminescence, MLSMR, MLSCN, NIH Roadmap, qHTS, NCGC
(Quantitative high-throughput screening tests each substance at several concentrations.)
As to `Cc1cccc(C)c1OP(C)(=O)Nc1ccc(SC(F)(F)F)cc1` (centres undefined), the activity, negative = cell killing was inactive: -0.176%. As for `Cc1cc(C)cc(OP(C)(=O)Nc2ccc(SC(F)(F)F)cc2)c1` (centres undefined), the activity, negative = cell killing is inactive: -22.5%. With `CP(=O)(Nc1ccc2c(c1)OCCO2)Oc1ccccc1` (centres undefined) the figure was inactive: 0.0646%; with `CCN(CC)CCCOC(=O)C(O)(c1ccccc1)C1CCCCC1` (centres undefined), inactive: 10.8%.
